From US7060808B1, “Humanized anti-EGF receptor monoclonal antibody” (ImClone Systems Incorporated, priority 1995, dated 2006) come the findings set out here.

This assay deals with T1, EGFR expressed on the surface of A431 cells (Homo sapiens, UniProt P00533).
T1 construct: A431 cells (10^4 or 10^5 per well) were grown in 96 well microtiter plates overnight; endogenous in cells; host or cells: A431 human epidermoid carcinoma cells
Nature of the assay: A431 cell ELISA for the detection of EGFR antigen binding. The note with it: COS cell supernatants. For orientation: An ELISA detects its analyte on a solid surface through an enzyme-linked reagent.

B1: H225: reshaped human (CDR-grafted) 225 antibody, first versions of kappa light and heavy chain variable regions (antibody, V domains shown)
VL: EIVLTQSPATLSLSPGERATLSCRASQSIGTNIHWYQQRPGQAPRLLIKYASESISGIPARFSGSGSGTDFTLTISSLEPEDFAVYYCQQNNNWPTTFGGGTKVEIK
VH: EVQLVESGGGLVQPGGSLRLSCAVSGFSLTNYGVHWVRQATGKGLEWLGVIWSGGNTDYNTPFTSRLTISKENAKNSLYLQMNSLRAGDTAVYYCARALTYYDYEFAYWGQGTMVTVSS
Take B1: the “binding to EGFR in the cell ELISA” value is given as “significant level of binding to EGFR” and the “relative affinity compared with the chimeric C225 antibody” value is “about 65%”.
